Earlier results, collected in patent US9675579B2, “Tetrahydrocannabivarin for use in the treatment of nausea and vomiting” (GW Pharma Limited, priority 2013, dated 2017).

Tested on: rodent
Details: 2.5 mg/kg, sub-threshold for nausea on its own, pre-treatment prior to saccharin-LiCl pairing, drug-free test 72 hours after conditioning; cited from earlier work

AM251
potentiation of the nausea produced by LiCl (potentiated gaping): potentiated the nausea produced by LiCl
